The assay is filed under the species Rattus norvegicus. In words: Selectivity ratio of Ki for DAT in Sprague-Dawley rat brain homogenate to Ki for SERT in Sprague-Dawley rat brain homogenate. The class given is tissue-based. An outline of the steps:
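Ratio of DAT Ki to SERT Ki. DAT Ki came from [3H]WIN 35,428 displacement and SERT Ki from [3H]citalopram displacement, both in rat brain tissue. Each Ki is the mean ± SEM of three experiments run in triplicate.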

For `CN1CC(OCc2ccc(Cl)c(Cl)c2)(c2ccccc2)C1`, the Ratio Ki was determined as 1210.

These data come from ChEMBL document CHEMBL2401648, “3-Aryl-3-arylmethoxyazetidines. A new class of high affinity ligands for monoamine transporters” (Bioorg Med Chem Lett, 2013).
